Measurements published in patent US20250170265A1 (priority 2023, published 2025).
Read-outs that look alike come from different tables or passages of the source.

Legend:
[1] = tested on: supercoiled pBR322 plasmid DNA; conditions: for EC50: read-out: EC50 value, supercoiled pBR322 0.5 μg (40 μM/bp), 525 nm green light, 1.5-2 h, water; for DNA cleavage potency (in words): supercoiled pBR322, 525 nm green light
[2] = tested on: supercoiled pBR322 plasmid DNA; experiment: Cleavage assay of diazonium in blue, red, and ambient light; conditions: read-out: EC50 value; low-energy red light (660 nm)
double-stranded DNA = conditions: read-out: EC50 (DNA cleavage); comparison value; cited from earlier work

| Molecule | EC50 [1] | other results |
| --- | --- | --- |
| N-(3-diazobenzene)-N-methyl-3-diazobenzamide tetrafluoroborate | 46.1 nM | DNA cleavage potency (in words) [1]: good potency |
| N-(3-diazobenzene) 4-diazobenzamide tetrafluoroborate | 22.9 nM | EC50 [2]: 95 nM |
| N-(4-diazobenzene) 3-diazobenzamide tetrafluoroborate | 26.3 nM |  |
| N#[N+]c1ccc([N+]#N)cc1 | 792 nM |  |
| (3-diazophenyl) 3-diazobenzoate tetrafluoroborate | 38.1 nM |  |
| N-(3-diazobenzene) 3-diazobenzamide tetrafluoroborate | 18.2 nM |  |
| F[B-](F)(F)F.F[B-](F)(F)F.N#[N+]c1ccc2cc3cccc([N+]#N)c3nc2c1 |  | DNA cleavage potency (in words) [1]: only modest potency |
| N#[N+]c1ccc2cc3cccc([N+]#N)c3nc2c1 | 454 nM |  |
| F[B-](F)(F)F.F[B-](F)(F)F.N#[N+]c1ccc([N+]#N)cc1 |  | DNA cleavage potency (in words) [1]: improved potency |
| naphthaene-1-diazonium tetrafluoroborate | 1080 nM |  |
| calicheamicin γ1 |  | EC50 (double-stranded DNA): 7 to 10 nM |
| methyl 3,5-bisdiazonium-1-benzoate tetrafluoroborate | 4260 nM |  |
| di(benzene-3-diazonium)ether tetrafluoroborate | 47.9 nM |  |
| N-(4-diazobenzene) 4-diazobenzamide tetrafluoroborate | 74.1 nM |  |
| N#[N+]c1ccc([N+](=O)[O-])cc1 | 371 nM |  |
| 4-nitrile-benzene-1-diazonium tetrafluoroborate | 557 nM |  |
| CC(=O)Nc1ccc(C(c2ccc([N+]#N)cc2)(c2ccc([N+]#N)cc2)c2ccc([N+]#N)cc2)cc1 | 5.64 nM |  |
| CC(=O)Nc1ccc(C(c2ccc([N+]#N)cc2)(c2ccc([N+]#N)cc2)c2ccc([N+]#N)cc2)cc1.F[B-](F)(F)F.F[B-](F)(F)F.F[B-](F)(F)F |  | DNA cleavage potency (in words) [1]: excellent potency |
| methyl 4-benzoate-1-diazonium tetrafluoroborate | 571 nM |  |
| N,N′-di(3-benzenediazonium)urea tetrafluoroborate | 82.4 nM |  |
| N-(3-diazobenzene) benzamide tetrafluoroborate | 469 nM |  |
| di(benzene-4-diazonium)ether tetrafluoroborate | 33.7 nM |  |
